In PubChem BioAssay AID602252 (Broad Institute, 2012):
Only a part is listed here, and it is no random draw. Calls of active or inactive are those of the source.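 Rule for the calls: active = mean inhibition of at least 30% with at least half of replicates also reaching 30%; inconclusive = no clear call, values can overlap the other calls; inactive = the rest.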

These compounds were tested against Golgi-associated PDZ and coiled-coil motif-containing protein (Homo sapiens) (UniProt Q9HD26) (assay: blockade of CAL PDZ-reporter peptide interaction – biochemical, fluorescence polarization, untagged CAL PDZ, HTS, primary screen (AID 602252;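 note: 0% = DMSO neutral control and 100% = excess unlabeled competitor peptide PRC23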)). Details: purified CAL PDZ, TMR-peptide fluorescence polarization, 1 h; at 24.9 µM; stronger effect = higher value.
In the case of `O=C(O)COc1ccc([As](=O)(O)O)cc1[N+](=O)[O-]`, the inhibition is reported as inactive: -2.1%. With `Nc1ccccc1[As](=O)(O)c1ccccc1` the inhibition was inactive: -4.47%. With `CS(=O)(=O)c1cc([N+](=O)[O-])c2no[n+]([O-])c2c1` the inhibition was inactive: -0.617%. In the case of `O=P(Nc1nccs1)(c1ccccc1)c1nc2ccccc2s1` (configuration not stated), the inhibition is reported as inactive: -0.376%. For `O=P(Nc1nccs1)(Oc1ccccc1)Oc1ccccc1`, the inhibition was inactive: 5.17%. With `CCOP1(=S)c2c(C)nn(CCC#N)c2N=C(c2ccccc2F)N1C` (configuration not stated) the inhibition was inactive: -1.93%. For `CN(C(=O)Cc1ccc(Cl)c(Cl)c1)[C@H]1CC[C@@]2(CCCO2)C[C@@H]1N1CCCC1`, the inhibition was inactive: -5.61%. With `O=[N+]([O-])c1ccc2c(c1)nnn2O` the inhibition was inactive: 5.89%. With `CN(C(=O)Cc1ccccc1)[C@@H]1CC[C@]2(CCCO2)C[C@H]1N1CCCC1` the inhibition was inactive: 2.34%. In the case of `CCOP1(=S)c2c(C)nn(CCC#N)c2N=C(c2ccc(F)cc2)N1C` (configuration not stated), the inhibition is reported as inactive: -2.6%. For `N#CCCN(C(=O)COC(=O)C(O)(c1ccccc1)c1ccccc1)c1ccc(F)cc1`, the inhibition was inactive: -2.08%. For `NC(=O)Nc1ccc([As](=O)(O)O)cc1`, the inhibition was inactive: -2.11%. For `O=[As](O)(c1cccc(O)c1)c1cccc(O)c1`, the inhibition was inactive: -1.35%. `Cc1cccc(OCC(=O)OC2CN3CCC2CC3)c1` (configuration not stated) was tested, and the inhibition was inactive: 0.33%. `COc1cc(C(=O)NCC2(N3CCOCC3)CCCCC2)cc(Cl)c1OC(C)C` was tested, and the inhibition was inactive: 1.16%. `O=[As](O)(O)c1cccnc1` was tested, and the inhibition was inactive: -4.02%. For `CCOP(=O)(Nc1cccc2ccccc12)OCC`, the inhibition was inactive: -0.742%. In the case of `COc1cc(C2NCCC3(OCCO3)C2(C)C)cc(OC)c1OC` (configuration not stated), the inhibition is reported as inactive: -1.38%. For `CCCOP(=S)(Nc1nc(N)cc(=O)[nH]1)OCCC`, the inhibition was inactive: 5.89%. With `Cc1ccc(NCCc2c([N+](=O)[O-])cc([N+](=O)[O-])cc2[N+](=O)[O-])cc1` the inhibition was inactive: -2.58%. With `Nc1cccc2c([As](=O)(O)O)cccc12` the inhibition was inactive: -5.91%. In the case of `CC(C)(C)C(=O)NC(Sc1ncccn1)C(Cl)(Cl)Cl` (configuration not stated), the inhibition is reported as inactive: -2.37%. `Clc1n[nH]nc1-c1nn[nH][15n]1` was tested, and the inhibition was inactive: 0.448%. In the case of `CCOP(=O)(Nc1ccc(C)cn1)OCC`, the inhibition is reported as inactive: 11.5%. `CCOP(=O)(NC(=NC(C)c1ccccc1)NC(C)c1ccccc1)OCC` (configuration not stated) was tested, and the inhibition was inactive: -16.8%. With `CCC1=CC2Cc3nc4ccc(Cl)cc4c(N)c3C(C1)C2` (configuration not stated) the inhibition was inactive: -11.6%. `O=P1(Nc2ccccn2)COc2ccccc2OC1` was tested, and the inhibition was inactive: 3.51%. In the case of `CC1(CBr)Cn2c(nc3ccccc3c2=O)S1` (configuration not stated), the inhibition is reported as inactive: -0.565%. `CN(C(=O)Cc1ccc(Cl)c(Cl)c1)[C@@H]1CCCC[C@H]1N1CCCC1` was tested, and the inhibition was inactive: -2.85%. For `COc1ccccc1CNC(=O)COC(=O)C(O)(c1ccccc1)c1ccccc1`, the inhibition was inactive: 0.518%. For `CCCC1OP(=O)(Nc2ccccc2)OCC1CC` (configuration not stated), the inhibition was inactive: -2.47%. For `O=C(/C=C/c1ccccc1)OC1CN2CCC1CC2` (configuration not stated), the inhibition was inactive: -4.31%. With `CN(C)C1(CNC(=O)c2ccc(S(C)(=O)=O)cc2)CCCCC1` the inhibition was inactive: 1.12%. With `Cc1ccc(C(=O)OC2CN3CCC2CC3)cc1` (configuration not stated) the inhibition was inactive: -1.78%. In the case of `CC1CCC(C(C)C)C(OP(=O)(Nc2ccccn2)c2ccccc2)C1` (configuration not stated), the inhibition is reported as inactive: -0.537%. In the case of `Cc1nn(-c2ccccc2)c2c1P(=O)(N1CCOCC1)N(C)C(c1ccccc1)=N2` (configuration not stated), the inhibition is reported as inactive: 1.17%. In the case of `NS(=O)(=O)c1cccc(NC(=O)COC(=O)C(O)(c2ccccc2)c2ccccc2)c1`, the inhibition is reported as inactive: -1.27%. `O=P1(Nc2ccc(Br)cn2)COc2ccccc2OC1` was tested, and the inhibition was inactive: 0.022%. With `Cc1ccc(OCC(=O)OC2CN3CCC2CC3)cc1` (configuration not stated) the inhibition was inactive: -6.97%. With `O=[As](O)(c1cccs1)c1cccs1` the inhibition was inactive: -3.14%. In the case of `Nc1cccc([As](=O)(O)c2ccccc2)c1`, the inhibition is reported as inactive: 2.14%. `O=P1(Nc2ncccn2)COc2ccccc2OC1` was tested, and the inhibition was inactive: -0.27%. `Cc1cc(SC(NC(=O)c2ccccc2)C(Cl)(Cl)Cl)nc(C(C)C)n1` (configuration not stated) was tested, and the inhibition was inactive: 4.79%. `CCCCOc1ccc(C(=O)NCC2(N3CCCCC3)CCCCC2)cc1OC` was tested, and the inhibition was inactive: -6.11%. `CC1CCNP(=O)(N(CCCl)CCCl)O1` (configuration not stated) was tested, and the inhibition was inactive: 2.81%. In the case of `CCOC(=O)Nc1ccc([As](=O)(O)O)c(O)c1`, the inhibition is reported as inactive: -4.11%. For `O=[N+]([O-])c1ccc(Nc2ccc(Oc3ccc([N+](=O)[O-])cc3[N+](=O)[O-])cc2)c([N+](=O)[O-])c1`, the inhibition was active: 69.1%. For `Cc1cc(SC(NC=O)C(Cl)(Cl)Cl)ncn1` (configuration not stated), the inhibition was inactive: -2.27%. `O=P(Nc1ccccn1)(c1cccc2ccccc12)c1cccc2ccccc12` was tested, and the inhibition was inactive: 0.754%. In the case of `CCOC(=O)Nc1cccc([As](=O)(O)O)c1`, the inhibition is reported as inactive: -3.07%. For `O=C(Nc1ccncc1[N+](=O)[O-])c1ccc([N+](=O)[O-])cc1[N+](=O)[O-]`, the inhibition was inactive: 6.39%. With `O=C(COc1ccccc1)OC1CN2CCC1CC2` (configuration not stated) the inhibition was inactive: -1.21%. In the case of `COP1(=S)c2c(C)nn(CCC#N)c2N=C(c2ccc(F)cc2)N1C` (configuration not stated), the inhibition is reported as inactive: -1.31%. `CCC(C)N(CC(C)C)C(=S)SC(NC(C)=O)C(Cl)(Cl)Cl` (configuration not stated) was tested, and the inhibition was inactive: -1.64%. In the case of `O=C(OC1CN2CCC1CC2)c1cccc([N+](=O)[O-])c1` (configuration not stated), the inhibition is reported as inactive: -2.1%. With `COc1cc(I)ccc1[As](=O)(O)O` the inhibition was inactive: -3.13%. For `COc1ccc2nc(NP(=O)(c3ccccc3)c3ccccc3)sc2c1`, the inhibition was inactive: 1.12%. In the case of `O=P1(N(CCCl)CCCl)OCCCN1CCCl` (configuration not stated), the inhibition is reported as inactive: -2.81%. `O=P1(N(CCCl)CCCl)Nc2ccccc2N1` was tested, and the inhibition was inactive: 1.96%. With `Cc1cc(=O)[nH]c(N[N+](=O)[O-])n1` the inhibition was inactive: -5.35%. For `O=C(OC1CN2CCC1CC2)C12CC3CC(CC(C3)C1)C2` (configuration not stated), the inhibition was inactive: -6.54%. For `Cc1c2c(nc3ccccc13)SC(C(Cl)Cl)C2` (configuration not stated), the inhibition was inactive: 1.93%. `COc1ccc(N/C(=N/P(=O)(N2CCOCC2)N2CCOCC2)N2CCOCC2)cc1` was tested, and the inhibition was active: 50.7%. In the case of `O=[N+]([O-])c1cc(Oc2ccc([N+](=O)[O-])cc2C(F)(F)F)cc([N+](=O)[O-])c1`, the inhibition is reported as inactive: 1.24%. `Cc1ccc2nc3c(c(C)c2c1)CC(C(Cl)Cl)S3` (configuration not stated) was tested, and the inhibition was inactive: 2.95%. In the case of `Cc1ccc(OP(=O)(Nc2ccc([N+](=O)[O-])cn2)Oc2ccc(C)cc2)cc1`, the inhibition is reported as inactive: 1.46%. With `COc1cc(C(=O)NCC2(N3CCOCC3)CCCCC2)ccc1OCC(C)C` the inhibition was inactive: -2.32%. In the case of `O=[N+]([O-])c1ccc(-c2cc([N+](=O)[O-])c(O)c([N+](=O)[O-])c2)cc1`, the inhibition is reported as inactive: 7.42%. For `C[As](=O)(O)c1cccc(C(=O)O)c1`, the inhibition was inactive: 5.43%. With `O=[As](O)(c1ccc(O)cc1)c1ccccc1O` the inhibition was inactive: -2.84%. With `O=[N+]([O-])c1cc([N+](=O)[O-])c(-c2ccn[nH]2)s1` the inhibition was inactive: -2.67%. In the case of `CCN(CC)C(=S)SC(NC=O)C(Cl)(Cl)Cl` (configuration not stated), the inhibition is reported as inactive: -1.35%. For `CC(C)NC(=O)NP(=O)(Oc1ccccc1)Oc1ccccc1`, the inhibition was inactive: 4.01%. In the case of `CC(C)c1ccc(OP(=O)(Nc2ccccn2)Oc2ccccc2F)cc1` (configuration not stated), the inhibition is reported as inactive: -3.98%. `COC(=O)C1(C)COP(=O)(N2CCCCCC2)OC1` (configuration not stated) was tested, and the inhibition was inactive: 0.769%. `ClCCSc1nnc(-c2cccnc2)o1` was tested, and the inhibition was inactive: -1.09%. In the case of `CN(C(=O)Cc1ccc(Cl)c(Cl)c1)[C@H]1CCCC[C@@H]1N1CCCC1`, the inhibition is reported as inactive: -1.47%. For `Cc1ccc(NP(=O)(Oc2ccccc2F)Oc2ccccc2F)nc1`, the inhibition was inactive: -1.33%. `CCOP(=O)(Nc1ccccc1)OCC` was tested, and the inhibition was inactive: -2.62%. For `Cc1cc(SC(NC(=O)c2ccc(F)cc2)C(Cl)(Cl)Cl)ncn1` (configuration not stated), the inhibition was inactive: -0.585%. `CCCC1OP(N)(=O)OCC1CC` (configuration not stated) was tested, and the inhibition was inactive: -5.34%. With `O=C(O)c1ccccc1[As](=O)(O)O` the inhibition was inactive: -4.12%. `CC(=O)Nc1ccc([As](=O)(O)O)cc1` was tested, and the inhibition was inactive: -2.29%. For `O=P(Nc1nc2ccc(Cl)cc2s1)(c1ccccc1)c1ccccc1`, the inhibition was inactive: -0.72%. For `Nc1cccc2ccc([As](=O)(O)O)cc12`, the inhibition was inactive: -5.84%. `COc1ccccc1OP(=O)(Nc1ccc(C)cn1)Oc1ccccc1OC` was tested, and the inhibition was inactive: -3.35%. With `Clc1ccc(Cl)c(NC2=NCC(CBr)S2)c1` (configuration not stated) the inhibition was inactive: 0.025%. `CN1CCCC(OC(=O)C(c2ccccc2)c2ccccc2)C1` (configuration not stated) was tested, and the inhibition was inactive: -6.12%. With `NC(=O)c1cc([N+](=O)[O-])cc([N+](=O)[O-])c1N` the inhibition was inactive: -5.49%. For `Cc1ccc(N/C(=N/P(=O)(N2CCOCC2)N2CCOCC2)N2CCOCC2)cc1`, the inhibition was inactive: 1.14%. In the case of `CN(C(=O)Cc1ccc(Cl)c(Cl)c1)[C@H]1CCCC[C@H]1N1CCCC1`, the inhibition is reported as inactive: 0.349%. `CC(C)CC(=O)NC(Sc1ccc(Cl)cc1)C(Cl)(Cl)Cl` (configuration not stated) was tested, and the inhibition was inactive: -3.69%. With `Nc1cc(N)c2nonc2c1[N+](=O)[O-]` the inhibition was inactive: -1.03%. With `Oc1ccccc1CNc1ccccn1` the inhibition was inactive: -0.535%. For `CC(=O)N1C2C3N(C(C)=O)C1C1N(C(C)=O)C(C(N1C(C)=O)N3C(C)=O)N2C(C)=O`, the inhibition was inactive: 0.118%. With `O=[N+]([O-])c1cccc2n[nH]nc12` the inhibition was inactive: 2.37%. With `CCc1nc2c(n1)c1c(non1O)c1c2no[n+]1[O-]` the inhibition was inactive: -1.57%. For `Cc1ccc(NP(=O)(Oc2ccccc2)Oc2ccccc2)nc1`, the inhibition was inactive: 6.53%. For `COc1ccc(C2=NCC(CBr)S2)cc1` (configuration not stated), the inhibition was inactive: -6.84%. In the case of `CN(C)C(=O)OCCc1n(C)cc[n+]1C`, the inhibition is reported as inactive: -0.394%. In the case of `CC(C)=N/N=C(\N)N[N+](=O)[O-]`, the inhibition is reported as inactive: -1.76%. With `CC1CCN(C(=O)Oc2c(Cl)cc(Cl)c3cccnc23)CC1` the inhibition was inactive: -8.03%.
